Literature values as cited in patent US5023358A, “Vanadyl organo-mineral compound, method for obtaining such a compound, pharmaceutical composition containing this organo-mineral compound” (Panmedica S.A., priority 1987, dated 1991).

Conditions: oral; cited from earlier work

For sodium vanadate, which digestive toxicity is on record?
The digestive toxicity was “presents a digestive toxicity”.
